From PubChem BioAssay
In the library only some 13% were active in any assay of this set; here they are far more common.
LMNA splice mod: changes lamin A minigene splicing in HeLa cells; hit rate 0.01% among 200,000; Potency, µM (titrated, usually from 46.1 µM), without a hit: at the highest dose ratio change, negative = inhibition, usual class: inhibitors; HeLa LMNA splicing GFP/RFP minigene ratio, 48 h; active means well fitted inhibition curve with a large enough effect in the signal ratio, with a control signal flat, not every such curve was filed as active; inconclusive means small, poorly fitted or top-dose-only effect, or effect the other way, or a change in a side signal; the % refers to the signal ratio; further: potency means the concentration at half of the fitted maximal effect; on the % scale 0 is the no-effect control and ±100 the full control effect
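S3 HeLa cells stably expressing lamin A-EGFP splicing minigene plus DsRed2, 600 cells/well, 48 h compound exposure at 37C. Laser-scanning cytometry; analysed as GFP (500-530 nm)/RFP (575-640 nm) total intensity ratio; 0.5% DMSO vehicle.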
ALDH1A1 block: blocks purified human ALDH1A1 activity | Purified ALDH1A1, NADH fluorescence, propionaldehyde substrate | AID 1030 | hit rate 7.3% among 220,000 | Potency, µM (series often up to 75.3 µM), without a hit: at the highest dose activity, negative = inhibition, most hits filed as inhibitors; active means well fitted inhibition curve with a large enough effect, not every such curve was filed as active; inconclusive means small, poorly fitted or top-dose-only effect, or another doubt; inactive means no such curve, though single readings can be large or run the other way;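 further: potency means the concentration at half of the fitted maximal effect; plate controls were no enzyme wells and a reference inhibitor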
JMJD2E inh: blocks human JMJD2E demethylase activity; Potency, µM (series often up to 57.1 µM), inactives show top-dose activity change, negative = inhibition, most hits filed as inhibitors; AID 2147; JMJD2E catalytic domain, FDH-coupled NADH fluorescence (FDH is formaldehyde dehydrogenase); hit rate 1.6% among 230,000; active means well fitted inhibition curve with a large enough effect, not every such curve was filed as active; inconclusive means small, poorly fitted or top-dose-only effect, or another doubt; inactive means no such curve, though single readings can be large or run the other way;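 further: potency means the concentration at half of the fitted maximal effect; 0% = wells with enzyme and -100% = buffer wells without enzyme; nearly all actives have a fitted effect of over 50% in size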
miR-21 reporter: miR-21 reporter, rising signal; HeLa miR-21 FLuc reporter, luciferase, 48 h; Potency, µM (top dose mostly 38.3 µM), without a hit: at the top dose reporter change, positive = more light; 340,000 tested, under 10 active; active = well fitted rising curve with a large enough effect; inconclusive = small, poorly fitted or top-dose-only effect; inactive = no such curve, though single readings can be large or run the other way;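 note: % of control where 0% means no effect; miR-21 action dims this reporter so a rising signal means less miR-21 action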
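Luminescence from a firefly luciferase reporter carrying a miR-21 binding site downstream, stably expressed under a CMV promoter in HeLa cells that make miR-21 endogenously, reports miRNA modulation after 48 h compound exposure up to approximately 40uM final.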
G9a block: blocks human histone lysine methyltransferase G9a; Q96KQ7; G9a H3K9 monomethylation, AlphaScreen, 2 h; Potency, µM (doses to about 102 µM), for the others: top-dose activity, negative = inhibition, usual class: inhibitors; hit rate 8.8% among 350,000; further: potency means the concentration at half of the fitted maximal effect; on the % scale 0 is the no-effect control and ±100 the full control effect; nearly all actives have a fitted effect of over 75% in size
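Readings reflect AlphaScreen signal from monomethyl-H3K9 antibody detection. HMT at 20 nM; substrate b-H3K9 500 nM; cofactor SAM 20 uM; 2 h RT reaction; compounds tested as titrations in qHTS with 15 min preincubation.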
Sfp PPTase inh: blocks B. subtilis Sfp PPTase activity; Q9F4F7; Biochemical Sfp PPTase activity, qHTS; Potency, µM, for the others: max response, negative = inhibition, most hits filed as inhibitors; actives 3.5% (n = 310,000); AID 1490; active = well fitted inhibition curve with a large enough effect; inconclusive = small, poorly fitted or top-dose-only effect, or another doubt; inactive = no such curve, though single readings can be large or run the other way;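 also: the enzyme is Sfp with the accession as filed and its product quenches rhodamine fluorescence; potency is read from the fitted curve at half-maximal effect; 0% = enzyme reaction without inhibitor and -100% = no enzyme wells; top concentration of the series not given in the record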
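Sfp 15 nM + cpd, 15 min RT; start w/ rhodamine-CoA 5 uM, BHQ-2-YbbR 12.5 uM (final); 50 mM Hepes pH 7.6, 10 mM MgCl2, 0.01% NP-40, 0.01% BSA; read 525/598 nm at 0 and 30 min.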
Starred values were filed as active, the others as inactive; ? = inconclusive; / = no result given; [ ] = dose if it differs, or a comment. Unless noted, the call rests on the fitted dose curve; in most records, active means well fitted curve in the direction sought with a large enough effect; inconclusive means small, poorly fitted or top-dose-only effect, or another doubt; inactive means no such curve, though single readings can be large; an effect the other way counts as inactive or inconclusive.

entry | structure | LMNA splice mod | miR-21 reporter | ALDH1A1 block | JMJD2E inh | G9a block | Sfp PPTase inh
1 | CN(CCCNC(=O)Cn1ncc2c([nH]c3ccccc32)c1=O)Cc1ccccc1 | -1%[46 µM] | 2% | / | / | -34%[59 µM] | /
2 | CC(=O)Nc1ccn(C2OC(C(COC(C)=O)NC(=O)C(COCc3ccccc3)NC(=O)OC(C)(C)C)C(OC(C)=O)C2OC(C)=O)c(=O)n1 (stereo not drawn) | / | / | / | / | / | -2%
3 | CCNC(=O)C(=O)Nc1cc2c3c(c1)CCN3C(=O)CC2 | / | 3% | / | / | / | -1%
4 | COc1ccc(NC(=O)Nc2ccc3c(c2)OCO3)c(C)c1 | / | -37% | / | / | / | 4%
5 | O=C(O)CC/C=C\CC[C@H]1[C@@H](N2CCCCC2)[C@@H](O)C[C@@H]1OCc1ccc(-c2ccccc2)cc1 | / | / | 4% | 3% | / | -8%
6 | CCOc1ccc(S(=O)(=O)NCCC(=O)N(C)CC(=O)Nc2ccc(N3CCOCC3)cc2)cc1 | / | / | / | / | 35µM* | /
7 | Cc1ccc(OCC(=O)N(C)CC(=O)Nc2ccc(N3CCOCC3)cc2)cc1 | / | / | / | / | 4%[0.501 µM] | /
8 | CN(CC(=O)Nc1ccc(N2CCOCC2)cc1)C(=O)CCNC(=O)c1ccc(Br)cc1 | / | / | / | / | 45µM* | /
9 | CN(C)c1ncc2nc(-c3ccc(Cl)cc3)c(=O)n(C[C@H]3CCCO3)c2n1 | 6% | / | ? | / | 3%[0.501 µM] | 10%
10 | CCN(CC)c1cc(Cl)c2nonc2c1N | / | -7% | / | -1% | 32µM* | -4%
11 | CN(C)c1cc(Cl)c2nonc2c1N | / | -8% | / | -28% | 40µM* | 89µM*
12 | O=C(COc1ccc(Cl)cc1)NCC(c1ccco1)S(=O)(=O)c1ccccc1 (stereo not drawn) | 12%[46 µM] | 7% | / | / | -22%[59 µM] | /
13 | Cc1nnc(NC(=O)CC(C)c2ccccc2)s1 (stereo not drawn) | / | 1% | / | / | / | 3%
14 | CC(CC(=O)Nc1nnc(CC(C)(C)C)s1)c1ccccc1 (stereo not drawn) | / | -4% | / | / | 40µM* | ?
15 | CC(C)(C)Cc1nnc(NS(=O)(=O)c2ccccc2)s1 | / | -6% | ? | -2% | 79µM* | -3%
16 | CC(C)Cc1nnc(NS(=O)(=O)Cc2ccccc2)s1 | 1% | -1% | 13µM* | -4% | -17%[12.7 µM] | -6%
17 | Cc1ccc(Cl)cc1N1CCN(S(=O)(=O)c2ccc3c(c2)CC(=O)N3C)CC1 | ? | 3% | / | / | -27%[59 µM] | -1%
18 | CC(=O)c1cccc(N(CC(=O)NC2CCCCC2)C(=O)Cn2nnc(-c3ccccc3)n2)c1 | / | 0% | / | / | 28% | 13%
19 | COc1cc(Br)cc(CN2CCN(C/C=C/c3ccccc3)CC2)c1O | ? | -1% | 3% | 0% | 40µM* | -24%
20 | COc1cc(C/C=C\c2ccccc2)c(OC)cc1O | / | / | 25µM* | ? | / | 45µM*
21 | COc1ccccc1C(CC(=O)Nc1nccs1)c1ccco1 (stereo not drawn) | 3% | -6% | -14% | -2% | -20%[59 µM] | -9%
22 | CCC(=O)N(CCC(Cc1ccccc1)c1ccco1)Cc1ccco1 (stereo not drawn) | / | 11% | 14µM* | -4% | -21% | -26%
23 | COc1ccccc1C(CCN(Cc1cccs1)C(C)=O)c1ccco1 (stereo not drawn) | -2% | -2% | 8.9µM* | 5% | 45µM* | 20µM*
24 | CCC(=O)NCCC(c1ccco1)c1ccccc1OC (stereo not drawn) | -6% | 0% | -3% | 8% | -19%[59 µM] | 11µM*
25 | CCC(=O)N(CCC(c1ccccc1)c1ccco1)Cc1cccs1 (stereo not drawn) | -2%[0.0737 µM] | 12% | 8.9µM* | -3% | 30%[0.501 µM] | 50µM*

Sorted by value in miR-21 reporter (rising): 4 from the list above
entry | structure | LMNA splice mod | miR-21 reporter | ALDH1A1 block | JMJD2E inh | G9a block | Sfp PPTase inh
4 | COc1ccc(NC(=O)Nc2ccc3c(c2)OCO3)c(C)c1 | / | -37% | / | / | / | 4%
24 | CCC(=O)NCCC(c1ccco1)c1ccccc1OC (stereo not drawn) | -6% | 0% | -3% | 8% | -19%[59 µM] | 11µM*
13 | Cc1nnc(NC(=O)CC(C)c2ccccc2)s1 (stereo not drawn) | / | 1% | / | / | / | 3%
1 | CN(CCCNC(=O)Cn1ncc2c([nH]c3ccccc32)c1=O)Cc1ccccc1 | -1%[46 µM] | 2% | / | / | -34%[59 µM] | /

Continuation.
entry | structure | LMNA splice mod | miR-21 reporter | ALDH1A1 block | JMJD2E inh | G9a block | Sfp PPTase inh
26 | CCC(=O)N(CCC(Cc1ccccc1)c1ccc2c(c1)OCO2)Cc1ccccc1F (stereo not drawn) | ? | 7% | ? | -10% | 14% | ?
27 | S=C(Nc1ccc2nsnc2c1)N1CCCCC1 | ? | -36% | ? | 11µM* | 16µM* | ?
28 | S=C(Nc1ccc2nc(-c3ccccn3)c(-c3ccccn3)nc2c1)N1CCCCCC1 | 28%[46 µM] | -19% | ? | ? | 20µM* | 40µM*
29 | S=C(Nc1ccc2nccnc2c1)N1CCOCC1 | / | -43% | -11% | ? | 45µM* | 35µM*
30 | S=C(Nc1ccc2nc(-c3ccccn3)c(-c3ccccn3)nc2c1)N1CCCCC1 | / | 0% | ? | 10% | -4% | 0%
31 | CCCNC(=S)Nc1ccc2nc(-c3ccccn3)c(-c3ccccn3)nc2c1 | 12% | -7% | -1% | ? | 13µM* | 18µM*
32 | COc1ccc(Cl)c(Cn2c(NCCN)nc3c2c(=O)n(C)c(=O)n3C)c1 | / | 0% | / | / | 7%[59 µM] | /
33 | CC(C)C[C@H](NC(=O)CNC(=O)[C@@H]1CCCN1C(=O)[C@H](CCCNC(=N)N)NC(=O)[C@H](CC(=O)O)NC(=O)[C@@H](NC(=O)[C@H](CC(N)=O)NC(=O)[C@@H](NC(=O)[C@H](CC(=O)O)NC(=O)CNC(=O)[C@@H](NC(=O)[C@@H](NC(=O)[C@H](C)NC(=O)[C@@H](N)CCC(N)=O)[C@@H](C)O)C(C)C)C(C)C)[C@@H](C)O)C(=O)N[C@@H](CC(C)C)C(=O)N[C@@H](CC(=O)O)C(=O)N[C@@H](CC(C)C)C(=O)N[C@@H](CCCCN)C(=O)O | / | / | / | / | / | 2%
34 | Cc1ccc(-n2nc(C)c3c(C(=O)NCCc4ccc(S(N)(=O)=O)cc4)cc(C)nc32)cc1 | -4%[46 µM] | 23% | / | / | 0%[59 µM] | /
35 | CC(=O)OC(C)=O | / | / | ? | / | -1%[0.501 µM] | /
36 | CCCCn1c(SC(C)C(N)=O)nc2cc(C(=O)OC)ccc2c1=O (stereo not drawn) | 6% | 0% | 0.6µM* | 16% | 6%[12.7 µM] | 7%
37 | CCNC(=O)NC(=O)C(C)Sc1nc2cc(C(=O)OC)ccc2c(=O)n1-c1ccccc1 (stereo not drawn) | ? | -5% | 22µM* | ? | -1% | 18%
38 | CCCCn1c(SC(C)C(=O)NCC2CCCO2)nc2cc(C(=O)OC)ccc2c1=O (stereo not drawn) | / | / | / | / | 10% | /
39 | CC(C)CNC(=O)COC(=O)c1c2c(nc3ccccc13)/C(=C/c1cccs1)CC2 | ? | -27% | -4% | ? | ? | 45µM*
40 | NC(=O)c1ccc(NC(=O)COC(=O)c2c3c(nc4ccccc24)/C(=C\c2cccs2)CCC3)cc1 | ? | ? | ? | ? | 10%[59 µM] | 9%
41 | O=C(COC(=O)c1c2c(nc3ccccc13)/C(=C/c1ccco1)CC2)NC1CCCC1 | 2% | -1% | ? | 25µM* | 3.5µM* | 50µM*
42 | CC1CCCCC1NC(=O)COC(=O)c1c2c(nc3ccccc13)/C(=C/c1ccco1)CC2 (stereo not drawn) | 0% | -30% | ? | 16µM* | ? | -53%
43 | O=c1oc2ccc(F)cc2cc1-c1nc(-c2cccs2)no1 | / | -22% | / | / | -1%[59 µM] | /
